Measurements reported in ChEMBL document CHEMBL4152346, “Sulfonamido-2-arylbenzoxazole GroEL/ES Inhibitors as Potent Antibacterials against Methicillin-Resistant Staphylococcus aureus (MRSA)” (J Med Chem, 2018).

Protein sequences, listed by entry. Tags and fused reporters are not part of them.
UniProt P0A6F5, whole entry, looked up: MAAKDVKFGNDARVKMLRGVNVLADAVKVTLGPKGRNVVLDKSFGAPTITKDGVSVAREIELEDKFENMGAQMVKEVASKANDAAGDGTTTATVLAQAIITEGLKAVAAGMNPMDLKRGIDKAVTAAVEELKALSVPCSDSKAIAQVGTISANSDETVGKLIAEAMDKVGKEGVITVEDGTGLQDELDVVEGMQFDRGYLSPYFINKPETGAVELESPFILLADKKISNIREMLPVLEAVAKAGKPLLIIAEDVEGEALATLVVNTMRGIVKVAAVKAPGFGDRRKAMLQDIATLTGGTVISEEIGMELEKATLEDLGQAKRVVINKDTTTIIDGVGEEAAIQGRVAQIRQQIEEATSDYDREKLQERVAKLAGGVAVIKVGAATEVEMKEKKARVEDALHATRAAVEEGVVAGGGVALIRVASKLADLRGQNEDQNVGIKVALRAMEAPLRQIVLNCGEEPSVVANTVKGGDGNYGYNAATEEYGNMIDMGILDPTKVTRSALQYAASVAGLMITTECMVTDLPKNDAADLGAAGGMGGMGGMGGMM
UniProt P10809, whole entry: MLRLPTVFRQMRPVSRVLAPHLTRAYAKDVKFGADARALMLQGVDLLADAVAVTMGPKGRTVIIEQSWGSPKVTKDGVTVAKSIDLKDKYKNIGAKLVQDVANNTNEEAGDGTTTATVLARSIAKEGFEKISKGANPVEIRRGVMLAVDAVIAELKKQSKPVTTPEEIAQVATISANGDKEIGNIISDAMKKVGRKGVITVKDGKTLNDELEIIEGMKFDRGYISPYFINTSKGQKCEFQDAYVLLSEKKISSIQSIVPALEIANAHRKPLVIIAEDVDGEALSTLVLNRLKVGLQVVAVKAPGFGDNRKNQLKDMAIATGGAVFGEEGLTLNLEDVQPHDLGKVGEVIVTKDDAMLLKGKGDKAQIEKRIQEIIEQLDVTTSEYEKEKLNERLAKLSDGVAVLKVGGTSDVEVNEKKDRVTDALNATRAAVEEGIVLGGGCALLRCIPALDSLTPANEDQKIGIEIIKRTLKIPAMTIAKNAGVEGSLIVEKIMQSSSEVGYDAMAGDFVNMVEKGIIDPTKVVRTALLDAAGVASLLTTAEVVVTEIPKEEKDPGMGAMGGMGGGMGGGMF

Key:
[1] = biological target: T1, E. coli GroEL/ES (Escherichia coli, UniProt P0A6F5); assay: Inhibition of Escherichia coli GroEL expressed in Escherichia coliDH5alpha/Escherichia coli GroES expressed in Escherichia coli BL21 (DE3) assessed as reduction in GroEL/GroES-mediated denatured MDH refolding by measuring MDH enzyme activity using sodium mesoxalate as substrate after 20 to 40 mins by spectrometric analysis
Summary of the method: (§1)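 Coupled refolding assay: denatured rhodanese or MDH refolded by GroEL/ES (50 nM GroEL tetradecamer, 700 nM subunits), read-out via enzymatic activity of refolded substrate; counter-screened against native enzyme activity. IC₅₀ as back-calculated mean of log-transformed replicate values.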

[2] = biological target: T1, E. coli GroEL/ES; assay: Inhibition of Escherichia coli GroEL expressed in Escherichia coli DH5alpha/Escherichia coli GroES expressed in Escherichia coli BL21 (DE3) assessed as reduction in GroEL/GroES-mediated denatured rhodanese refolding by measuring rhodanese enzyme activity after 45 mins by spectrometric analysis; summary of the method: as §1
[3] = biological target: HSP60/HSP10 (Homo sapiens, UniProt P10809); assay: Inhibition of human N-terminal octa-His-tagged HSP60 expressed in Escherichia coli Rosetta(DE3) pLysS/human HSP10 expressed in Escherichia coli Rosetta(DE3) assessed as reduction in HSP60/HSP10-mediated denatured MDH refolding by measuring MDH enzyme activity using sodium mesoxalate as substrate after 40 to 60 mins by spectrometric analysis
Summary of the method: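 Chaperonin-mediated refolding of denatured MDH, coupled to MDH enzymatic activity as the reporter. Human HSP60/10 (HSP60 without its 26-residue mitochondrial signal peptide) or E. coli GroEL/ES was used, with GroEL tetradecamer at 50 nM (700 nM subunits) during the refolding cycle. IC50s from replicate dose-response curves were averaged as logs after ROUT outlier removal.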

| SMILES | IC50 [1] [µM] | IC50 [2] [µM] | IC50 [3] [µM] |
| --- | --- | --- | --- |
| O=S(=O)(Nc1ccc(-c2nc3cc(NS(=O)(=O)c4ccc(Cl)s4)ccc3o2)cc1)c1ccc(Cl)s1 | 2.4 | – | – |
| O=S(=O)(Nc1ccc2oc(-c3ccc(NS(=O)(=O)c4ccc(Cl)s4)cc3)nc2c1)c1ccc(Cl)c(C(F)(F)F)c1 | 5.2 | 11 | – |
| O=S(=O)(Nc1ccc(-c2nc3cc(NS(=O)(=O)c4ccc(Cl)cc4)ccc3o2)cc1)c1ccc(Cl)cc1 | 15 | 29 | – |
| NCc1ccc(S(=O)(=O)Nc2ccc3oc(-c4ccc(NS(=O)(=O)c5ccc(Cl)s5)cc4)nc3c2)cc1 | – | 11 | – |
| O=S(=O)(Nc1ccc(-c2nc3cc(NS(=O)(=O)c4ccc(Cl)s4)ccc3o2)cc1)c1ccc(Cl)c(C(F)(F)F)c1 | 2.6 | 7.3 | – |
| O=S(=O)(Nc1ccc(-c2nc3cc(NS(=O)(=O)c4ccc(Cl)s4)ccc3o2)cc1)c1cccc(C(F)(F)F)c1 | 2.2 | 4.5 | 4.5 |
| O=[N+]([O-])c1cc(S(=O)(=O)Nc2ccc3oc(-c4ccc(NS(=O)(=O)c5ccc(Cl)s5)cc4)nc3c2)ccc1Cl | 1.1 | – | – |
| O=[N+]([O-])c1ccc(S(=O)(=O)Nc2ccc(-c3nc4cc(NS(=O)(=O)c5ccc([N+](=O)[O-])cc5)ccc4o3)cc2)cc1 | 24 | 22 | – |
| O=S(=O)(Nc1ccc(-c2nc3cc(NS(=O)(=O)c4cccc(C(F)(F)F)c4)ccc3o2)cc1)c1cccc(C(F)(F)F)c1 | 11 | – | – |
| O=S(=O)(Nc1ccc2oc(-c3ccc(NS(=O)(=O)c4ccc(Cl)s4)cc3)nc2c1)c1cccc(C(F)(F)F)c1 | – | 11 | – |
| O=S(=O)(Nc1ccc2oc(-c3ccc(NS(=O)(=O)c4cccc5nonc45)cc3)nc2c1)c1ccc(Cl)s1 | – | 19 | – |
